This note sets out measurements from PubChem BioAssay AID871 (The Scripps Research Institute Molecular Screening Center, 2007).

The entries are a selection whose mix differs from that of the whole data set. The source made the active and inactive calls.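 The calls were made as follows: active = activation above the screen-wide mean of compound activation plus 3 SD (cut at about 130% in these data); inactive = the rest.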

The test in a line: enhancers of STAT3 transcriptional signaling – U3A cells, luciferase, luminescence, MLSCN library, primary screen (AID 871).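 Also: 0% = background luminescence of wells with medium and substrate only.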 To be noted: IL-6 STAT3-luciferase reporter, at 5.6 µM, hits give high values, 100% = signal with IL-6 EC80 alone. The procedure, abridged: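 Material: human STAT1-deficient U3A cells with stable STAT3-luciferase reporter / Probe or stimulus: IL-6 stimulus at 33 ng/mL final / Schedule: 1 h compound pre-exposure, 6 h IL-6 stimulation, 37 °C / Technique: luminescence / Read-out basis: percent of IL-6-only median luminescence / Control set: IL-6-only high control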
On to `CN(C)c1ccc(C(=O)NCC2(N3CCCCC3)CCCCC2)cc1`, for which the activation (% of control) was inactive: 102%.
In the case of `CCN1CCC(Nc2cccc(F)c2)CC1` it was inactive: 96.2%; in that of `COc1cc(OC)cc(C(=O)NCC2(N3CCOCC3)CCCCC2)c1`, inactive: 103%; in that of `CCC(CO)(C(=O)OC1CN2CCC1CC2)c1ccccc1` (stereo not given), inactive: 103%.
With `CC(C)(C)OC(=O)N1CCC(Nc2ccccc2)CC1` the figure was inactive: 103%; with `CCOc1ncccc1C(=O)NCC1(N2CCOCC2)CCCCC1`, inactive: 108%; with `O=C(OC1CN2CCC1CC2)C1c2ccccc2C=Cc2ccccc21` (stereo not given), inactive: 106%.
With `N/C(=N\O)c1c(N)no[n+]1[O-]` the figure was inactive: 93.3%; with `COc1ccc(C(=O)NCC2(N3CCOCC3)CCCCC2)cc1OC`, inactive: 104%.
As to `c1ccc(CN2CCC(Nc3ccccc3)CC2)cc1`, the activation (% of control) is inactive: 101%.
`N#Cc1ccc(C(=O)NCC2(N3CCCCC3)CCCCC2)cc1`: the activation (% of control) was inactive: 93.1%.
In the case of `O=C(NCC1(N2CCOCC2)CCCCC1)c1cc(=O)[nH]c2ccccc12` it was inactive: 106%.
Turning to `CN1CCN(CCOC(=O)C(O)(c2ccccc2)c2ccccc2)CC1`, the activation (% of control) was inactive: 102%.
With `COc1ccc(NC2CCN(C(=O)OC(C)(C)C)CC2)cc1` the figure was inactive: 104%.
On to `N#CC1(Nc2ccccc2)CCN(CCc2ccccc2)CC1`, for which the activation (% of control) is inactive: 104%.
With `O=C(NCC1(N2CCCCC2)CCCCC1)c1cccc([N+](=O)[O-])c1` the figure was inactive: 104%; with `CN1CCC(Nc2cccc(F)c2)CC1`, inactive: 109%.
With `CC(C)c1ccc(NC2CCN(C(=O)OC(C)(C)C)CC2)cc1` the figure was inactive: 116%; with `COc1ccc(CN(CCCl)CCCl)cc1Cl`, inactive: 102%.
With `CN(C)c1cccc(C(=O)NCC2(N3CCCCC3)CCCCC2)c1` the figure was inactive: 107%; with `O=C(OC1CN2CCC1CC2)C1c2ccccc2Oc2ccccc21` (stereo not given), inactive: 99.2%; with `CCOC(=O)N1CCC(Nc2ccc(OC)cc2)CC1`, inactive: 95.2%.
With `O=C(NCC1(N2CCOCC2)CCCCC1)c1cc2ccccc2o1`, the activation (% of control) was inactive: 112%.
With `COc1ccc(C(=O)NCC2(N3CCCCC3)CCCCC2)c(OC)c1OC`, the activation (% of control) is inactive: 106%.
With `COc1ccc(NC2CCN(CCc3ccccc3)CC2)c(OC)c1` the figure was inactive: 103%.
